One experiment addresses D816V KIT (Homo sapiens (Human), UniProt P10721, D816V). The experiment in a line: KIT D816V assay at Km (Caliper electrophoretic mobility shift). The note with it: read-out: INH KIT D816V; biochemical, 15 uM ATP (Km), 90 minutes at 25 C.
Experiment [1] has as its target KIT D816V kinase activity (KIT autophosphorylation at tyrosine 719) in HMC1.2 cells (Homo sapiens (Human), UniProt P10721, D816V/V560G). The experiment in a line: HMC1.2 autophosphorylation assay (phospho-Y719 c-KIT AlphaLISA). Type of experiment: cell-based. The note with it: read-out: INH-KIT-PHOS-HMC1.2; HMC1.2 mast cell leukemia cell line (KIT V560G, D816V), 90 minutes compound.

Protein sequences, listed by entry. Tags and fused reporters are not part of them. Residues count along the entry.
UniProt P10721, 26-976 D816V limits assumed: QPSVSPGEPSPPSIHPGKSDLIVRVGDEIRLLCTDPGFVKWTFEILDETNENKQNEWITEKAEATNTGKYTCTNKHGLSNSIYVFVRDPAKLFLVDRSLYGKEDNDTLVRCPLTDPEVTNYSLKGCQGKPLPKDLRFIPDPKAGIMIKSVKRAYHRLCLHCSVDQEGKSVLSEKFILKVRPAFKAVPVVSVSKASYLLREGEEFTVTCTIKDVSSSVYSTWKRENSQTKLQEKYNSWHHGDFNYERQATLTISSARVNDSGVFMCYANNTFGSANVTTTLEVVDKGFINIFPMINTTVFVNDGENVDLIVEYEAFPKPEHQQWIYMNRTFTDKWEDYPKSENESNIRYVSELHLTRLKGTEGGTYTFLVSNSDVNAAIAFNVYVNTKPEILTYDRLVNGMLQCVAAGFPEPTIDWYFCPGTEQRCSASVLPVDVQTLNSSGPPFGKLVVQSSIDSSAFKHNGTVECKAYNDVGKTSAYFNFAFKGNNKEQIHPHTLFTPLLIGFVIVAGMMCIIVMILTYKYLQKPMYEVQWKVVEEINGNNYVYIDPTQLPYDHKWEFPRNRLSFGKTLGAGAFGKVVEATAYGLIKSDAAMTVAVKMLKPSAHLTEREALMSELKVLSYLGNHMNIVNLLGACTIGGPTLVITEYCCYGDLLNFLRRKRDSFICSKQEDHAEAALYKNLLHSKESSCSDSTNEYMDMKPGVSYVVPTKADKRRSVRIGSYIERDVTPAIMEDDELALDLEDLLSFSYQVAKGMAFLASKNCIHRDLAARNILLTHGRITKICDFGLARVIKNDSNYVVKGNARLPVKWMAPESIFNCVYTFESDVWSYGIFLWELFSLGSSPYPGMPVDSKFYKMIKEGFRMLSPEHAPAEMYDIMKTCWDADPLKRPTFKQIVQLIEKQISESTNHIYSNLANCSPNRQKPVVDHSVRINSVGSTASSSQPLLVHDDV
UniProt P10721, 26-976 V560G/D816V limits assumed: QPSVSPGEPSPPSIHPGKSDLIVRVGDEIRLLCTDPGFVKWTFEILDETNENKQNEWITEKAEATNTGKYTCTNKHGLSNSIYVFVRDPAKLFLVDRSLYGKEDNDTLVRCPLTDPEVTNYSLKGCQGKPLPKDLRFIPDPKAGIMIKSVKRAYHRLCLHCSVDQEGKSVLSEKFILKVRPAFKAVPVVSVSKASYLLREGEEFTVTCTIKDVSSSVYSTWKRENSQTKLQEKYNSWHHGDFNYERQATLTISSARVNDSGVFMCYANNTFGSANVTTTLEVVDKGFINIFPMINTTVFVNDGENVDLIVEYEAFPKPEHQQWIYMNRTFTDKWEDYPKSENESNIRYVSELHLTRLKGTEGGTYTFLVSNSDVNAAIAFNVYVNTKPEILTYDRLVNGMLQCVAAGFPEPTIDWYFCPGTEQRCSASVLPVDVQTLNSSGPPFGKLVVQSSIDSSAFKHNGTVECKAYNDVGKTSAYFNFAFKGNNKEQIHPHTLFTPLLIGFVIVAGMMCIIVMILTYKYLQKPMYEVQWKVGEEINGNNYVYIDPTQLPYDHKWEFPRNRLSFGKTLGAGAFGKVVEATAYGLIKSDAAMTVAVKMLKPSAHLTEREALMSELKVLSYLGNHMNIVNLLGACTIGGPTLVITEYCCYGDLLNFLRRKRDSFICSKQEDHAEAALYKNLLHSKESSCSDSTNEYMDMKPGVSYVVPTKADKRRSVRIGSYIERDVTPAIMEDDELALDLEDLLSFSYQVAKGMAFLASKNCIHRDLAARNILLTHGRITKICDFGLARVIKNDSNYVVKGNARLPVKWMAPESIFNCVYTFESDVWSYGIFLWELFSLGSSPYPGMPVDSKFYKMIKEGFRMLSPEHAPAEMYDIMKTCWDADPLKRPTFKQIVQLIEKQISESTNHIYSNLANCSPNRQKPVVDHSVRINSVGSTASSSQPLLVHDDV
UniProt P16234, 24-1089 D842V limits assumed: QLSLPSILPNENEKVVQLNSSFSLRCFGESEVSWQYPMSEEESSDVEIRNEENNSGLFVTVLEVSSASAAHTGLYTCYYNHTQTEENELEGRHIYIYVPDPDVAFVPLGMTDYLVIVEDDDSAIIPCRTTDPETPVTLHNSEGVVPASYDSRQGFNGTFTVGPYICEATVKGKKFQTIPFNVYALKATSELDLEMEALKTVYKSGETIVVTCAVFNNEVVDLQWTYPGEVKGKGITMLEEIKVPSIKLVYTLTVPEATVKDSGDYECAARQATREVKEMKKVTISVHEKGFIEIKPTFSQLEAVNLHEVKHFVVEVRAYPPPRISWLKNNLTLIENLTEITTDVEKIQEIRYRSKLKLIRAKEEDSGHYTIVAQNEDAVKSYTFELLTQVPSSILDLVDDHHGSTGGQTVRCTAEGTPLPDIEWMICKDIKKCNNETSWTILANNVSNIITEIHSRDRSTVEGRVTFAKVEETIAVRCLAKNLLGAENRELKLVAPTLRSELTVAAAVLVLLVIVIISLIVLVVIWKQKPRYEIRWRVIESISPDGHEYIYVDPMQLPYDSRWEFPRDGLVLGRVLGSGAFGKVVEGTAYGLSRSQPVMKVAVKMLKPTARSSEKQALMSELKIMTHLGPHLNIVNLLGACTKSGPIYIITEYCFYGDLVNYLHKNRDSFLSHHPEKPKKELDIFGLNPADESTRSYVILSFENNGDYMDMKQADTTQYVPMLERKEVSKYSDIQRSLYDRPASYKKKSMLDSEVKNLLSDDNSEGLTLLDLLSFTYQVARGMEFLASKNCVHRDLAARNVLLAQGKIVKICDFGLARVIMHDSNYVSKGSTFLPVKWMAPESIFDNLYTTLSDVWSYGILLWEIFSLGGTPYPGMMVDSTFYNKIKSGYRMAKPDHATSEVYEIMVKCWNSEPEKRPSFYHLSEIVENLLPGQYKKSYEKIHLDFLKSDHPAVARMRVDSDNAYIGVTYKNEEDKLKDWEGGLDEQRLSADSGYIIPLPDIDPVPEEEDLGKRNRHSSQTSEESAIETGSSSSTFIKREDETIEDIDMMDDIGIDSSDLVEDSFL

The next experiment addresses PDGFRA D842V (Homo sapiens (Human), UniProt P16234, D842V). The experiment in a line: PDGFRA D842V assay at Km (Caliper electrophoretic mobility shift). The note with it: read-out: INH PDFGRA D842V; biochemical, 15 uM ATP (Km), 90 minutes at 25 C.

Some results are limits rather than exact numbers.

Take `C[C@](O)(c1ccc(F)cc1)c1cnc(N2CCN(c3ncnn4cc(-c5cnn(C6COC6)c5)cc34)CC2)nc1`: the figures for the IC50 (at D816V KIT; in experiment [1]; on PDGFRA D842V) were below 1 nM, below 50 nM and below 1 nM, respectively.
Consider `C[C@](O)(c1ccc(F)cc1)c1cnc(N2CCN(c3ncnn4cc(-c5ccc(C6CC6)cc5)cc34)CC2)nc1`, for which the IC50 at D816V KIT lay in the range of 10 to 100 nM; in experiment [1], 100 to 1000 nM.
For the molecule `Cn1cc(-c2cc3c(N4CCN(c5ncc([C@](C)(O)c6ccc(F)cc6F)cn5)CC4)ncnn3c2)cn1`, the results for the IC50 (on D816V KIT; in experiment [1]; on PDGFRA D842V) were 1.01 to 10 nM, below 50 nM and below 1 nM, respectively.

Values taken from patent publication US10807985B2 (Blueprint Medicines Corporation, priority 2013, dated 2020).
